Reference: patent US5980914A, “Clioquinol for the treatment of Parkinson's disease” (priority 1997, dated 1999)

Test system: vitamin B12 ([^57 Co]-cyanocobalamine) metabolism
Assay: Influence of clioquinol on vitamin B12 in vivo: [57Co]-cyanocobalamine radioactivity in dissected tissues
Design: species or system mice
Details: versus control
Procedure: After three days, all of the mice were injected with [^57 Co]-cyanocobalamine. After two days, the animals were sacrificed, and the brain, liver and kidney were dissected and counted in a gamma-counter as thousand cpm/g tissue (wet weight)±SEM. The radioactivities in each of the groups are stated in Table 1 below: […]

Q: For Oc1c(I)cc(Cl)c2cccnc12 [Clioquinol, 5-chloro-7-iodo-8 hydroxyquinoline], which “radioactivity accumulation / vitamin B12 concentration in the brain and the liver, in words” value is on record?
A: remains at a normal level; also recorded: no significant changes in the amount of radioactivity accumulation in the brain and the liver

Entries after “also recorded” stand apart in the source; their conditions may differ.
